The results in this text go back to US6465482B2, “Arylpiperazinyl-cyclohexyl indole derivatives for the treatment of depression” (Wyeth, priority 1999, dated 2002).

By UniProt entry, the sequences of proteins in these tests, tags left out.
UniProt P31652, whole entry: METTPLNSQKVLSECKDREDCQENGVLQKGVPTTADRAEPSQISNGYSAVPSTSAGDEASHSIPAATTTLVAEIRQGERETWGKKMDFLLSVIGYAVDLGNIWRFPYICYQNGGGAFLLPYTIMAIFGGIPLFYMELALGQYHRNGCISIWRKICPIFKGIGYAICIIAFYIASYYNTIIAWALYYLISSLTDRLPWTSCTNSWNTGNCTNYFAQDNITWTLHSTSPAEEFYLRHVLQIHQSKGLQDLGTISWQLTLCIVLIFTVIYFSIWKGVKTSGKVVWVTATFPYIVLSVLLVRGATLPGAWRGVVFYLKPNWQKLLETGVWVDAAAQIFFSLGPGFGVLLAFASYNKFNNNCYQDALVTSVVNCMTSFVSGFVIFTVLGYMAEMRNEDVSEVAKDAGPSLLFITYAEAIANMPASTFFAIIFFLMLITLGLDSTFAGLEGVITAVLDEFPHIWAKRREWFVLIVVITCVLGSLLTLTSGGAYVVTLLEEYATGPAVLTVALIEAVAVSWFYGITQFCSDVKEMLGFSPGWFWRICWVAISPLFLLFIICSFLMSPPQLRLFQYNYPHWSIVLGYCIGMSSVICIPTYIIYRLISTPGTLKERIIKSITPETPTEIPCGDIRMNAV

This experiment concerns the target T1, serotonin transporter (Rattus norvegicus, UniProt P31652).
T1 construct: frontal cortical membranes prepared from male Sprague-Dawley rats; from tissue; host or cells: rat frontal cortex membranes
The experiment can be described thus: serotonin transporter affinity, 3H-paroxetine binding, frontal cortical membranes. As to conditions: 3H-paroxetine 0.1 nM; read-out: ST (Ki, nM,).
In the case of `Cn1cc([C@H]2CC[C@@H](N3CCN(c4cccc5[nH]ccc45)CC3)CC2)c2cc(C#N)ccc21` [Example 12a, 3-{(1,4-cis)-4-[4-(1H-indol-4-yl)-piperazin-1-yl]-cyclohexyl}-1-methyl-1H-indole-5-carbonitrile], the Ki is 0.76 nM.
Then `CCn1cc([C@H]2CC[C@@H](N3CCN(c4cccc5[nH]ccc45)CC3)CC2)c2cc(C#N)ccc21` [Example 13a, 1-Ethyl-3-{(1,4-cis)-4-[4-(1H-indol-4-yl)-piperazin-1-yl]-cyclohexyl}-1H-indole-5-carbonitrile], with 8.9 nM; and `CCn1cc([C@H]2CC[C@H](N3CCN(c4cccc5[nH]ccc45)CC3)CC2)c2cc(C#N)ccc21` [Example 13b, 1-Ethyl-3-{(1,4-trans)-4-[4-(1H-indol-4-yl)-piperazin-1-yl]-cyclohexyl}-1H-indole-5-carbonitrile], with 40 nM.
Then `CCCn1cc([C@H]2CC[C@@H](N3CCN(c4cccc5[nH]ccc45)CC3)CC2)c2cc(C#N)ccc21` [Example 14a, 3-{(1,4-cis)-4-[4-(1H-Indol-4-yl)-piperazin-1-yl]-cyclohexyl}-1-propyl-1H-indole-5-carbonitrile], with 17 nM; and `CCCn1cc([C@H]2CC[C@H](N3CCN(c4cccc5[nH]ccc45)CC3)CC2)c2cc(C#N)ccc21` [Example 14b, 3-{(1,4-trans)-4-[4-(1H-indol-4-yl)-piperazin-1-yl]-cyclohexyl}-1-propyl-1H-indole-5-carbonitrile], with 40 nM; and `Fc1ccc2[nH]cc([C@H]3CC[C@@H](N4CCN(c5cccc6cccnc56)CC4)CC3)c2c1` [Example 27a, 8-{4-[(1,4-cis)-4-(5-Fluoro-1H-indol-3-yl)-cyclohexyl]-piperazin-1-yl}-quinoline], with 8.6 nM.
In the case of `Fc1ccc2[nH]cc([C@H]3CC[C@H](N4CCN(c5cccc6cccnc56)CC4)CC3)c2c1` [Example 27b, 8-{4-[(1,4-trans)-4-(5-Fluoro-1H-indol-3-yl)-cyclohexyl]-piperazin-1-yl}-quinoline], the Ki was determined as 28 nM.
